In ChEMBL document CHEMBL4311994, “New 2,6-diaminopyridines containing a sterically hindered benzylphosphonate moiety in the aromatic core as potential antioxidant and anti-cancer drugs” (Eur J Med Chem, 2019):
The source made the active and inactive calls. The rule behind the calls is not given here.

Assay: Antioxidant activity assessed as ABAP free radical scavenging activity by measuring decrease in chemiluminescence intensity at 0.25 to 1 mM by luminescence based assay
Assay type: functional

With `CC(C)(C)c1cc(C2c3ccc(N)nc3NP2(=O)Oc2ccccc2)cc(C(C)(C)C)c1O` (stereo unspecified) the Activity was “Active”.
